Reference: PubChem BioAssay AID892 (National Center for Advancing Translational Sciences (NCATS), 2007)
The list shows a part of the results, in another mix than the full data. Activity calls are given as the source filed them. The call rests on the fitted dose curve; in most records, active means well fitted inhibition curve with a large enough effect; inconclusive means small, poorly fitted or top-dose-only effect; inactive means no such curve, though single readings can be large or run the other way.

By UniProt entry, the sequences of proteins in these tests, tags left out.
UniProt P38398, whole entry: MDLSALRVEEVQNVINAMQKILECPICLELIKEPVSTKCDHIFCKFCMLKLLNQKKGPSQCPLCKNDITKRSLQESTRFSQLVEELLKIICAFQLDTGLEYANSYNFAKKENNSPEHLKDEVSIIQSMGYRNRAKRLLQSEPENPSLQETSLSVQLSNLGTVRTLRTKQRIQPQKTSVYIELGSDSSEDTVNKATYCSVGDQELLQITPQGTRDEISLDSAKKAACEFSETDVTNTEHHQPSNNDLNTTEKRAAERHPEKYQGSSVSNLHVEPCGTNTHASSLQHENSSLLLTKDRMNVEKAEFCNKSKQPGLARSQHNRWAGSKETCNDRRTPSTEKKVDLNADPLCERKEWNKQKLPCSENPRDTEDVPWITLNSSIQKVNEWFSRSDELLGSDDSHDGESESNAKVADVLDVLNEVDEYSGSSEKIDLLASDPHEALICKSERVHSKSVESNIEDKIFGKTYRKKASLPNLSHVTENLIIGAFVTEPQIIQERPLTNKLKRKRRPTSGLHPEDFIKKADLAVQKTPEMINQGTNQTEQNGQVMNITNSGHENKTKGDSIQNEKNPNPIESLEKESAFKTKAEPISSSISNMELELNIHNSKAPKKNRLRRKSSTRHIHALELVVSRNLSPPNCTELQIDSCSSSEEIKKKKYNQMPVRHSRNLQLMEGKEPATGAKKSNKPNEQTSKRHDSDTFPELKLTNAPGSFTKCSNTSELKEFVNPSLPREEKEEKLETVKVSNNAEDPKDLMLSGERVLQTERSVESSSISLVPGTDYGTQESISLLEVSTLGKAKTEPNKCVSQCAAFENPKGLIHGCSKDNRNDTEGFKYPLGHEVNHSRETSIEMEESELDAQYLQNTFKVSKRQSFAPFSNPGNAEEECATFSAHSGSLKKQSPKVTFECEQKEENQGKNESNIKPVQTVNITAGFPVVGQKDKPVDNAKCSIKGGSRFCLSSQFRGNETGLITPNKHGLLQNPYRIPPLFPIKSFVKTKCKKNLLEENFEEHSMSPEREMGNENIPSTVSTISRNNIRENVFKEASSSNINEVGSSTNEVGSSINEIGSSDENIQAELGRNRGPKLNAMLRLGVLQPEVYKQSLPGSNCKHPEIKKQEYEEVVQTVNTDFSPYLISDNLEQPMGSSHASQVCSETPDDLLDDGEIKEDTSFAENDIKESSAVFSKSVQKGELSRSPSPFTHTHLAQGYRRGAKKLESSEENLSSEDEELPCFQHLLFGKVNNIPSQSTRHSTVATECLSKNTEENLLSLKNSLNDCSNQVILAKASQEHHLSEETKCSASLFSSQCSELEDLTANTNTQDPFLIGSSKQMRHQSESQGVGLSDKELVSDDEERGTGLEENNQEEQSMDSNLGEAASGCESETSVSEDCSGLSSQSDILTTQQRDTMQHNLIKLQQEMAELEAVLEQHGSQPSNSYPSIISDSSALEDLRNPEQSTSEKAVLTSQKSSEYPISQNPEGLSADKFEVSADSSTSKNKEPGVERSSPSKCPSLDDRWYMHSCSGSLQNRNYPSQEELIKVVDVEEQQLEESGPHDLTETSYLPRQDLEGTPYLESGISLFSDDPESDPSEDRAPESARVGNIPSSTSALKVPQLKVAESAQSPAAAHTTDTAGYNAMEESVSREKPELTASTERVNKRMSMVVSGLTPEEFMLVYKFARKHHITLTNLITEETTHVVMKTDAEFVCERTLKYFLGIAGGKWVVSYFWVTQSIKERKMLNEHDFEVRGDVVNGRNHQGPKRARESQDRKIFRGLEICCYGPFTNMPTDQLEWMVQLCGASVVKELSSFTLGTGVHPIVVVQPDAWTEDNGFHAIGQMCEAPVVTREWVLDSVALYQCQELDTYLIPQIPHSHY

biological target: Breast cancer type 1 susceptibility protein (Homo sapiens) (UniProt P38398); assay: qHTS Assay for Inhibitors of BRCT-Phosphoprotein Interaction (Red Fluorophore); conditions: BRCT-phosphopeptide binding, red fluorescence polarization; at 76.9 µM (top of the series) unless noted
Experimental: NIH Molecular Libraries Screening Centers Network [MLSCN]
NIH Chemical Genomics Center [NCGC]
PI Name: Natarajan, Amarnath; University of Texas
A complex of BRCT (C-terminal portion of BRCA1, MW ~35 kDa, His-tagged) and fluorescently labeled pBACH1 phosphorylated 10 aa peptide fragment of BACH1, a helicase implicated in DNA repair, is incubated with library members. Inhibitors of BRCT-pBACH1 binding are detected by a decrease in the fluorescence polarization (FP) of the fluorophore. In order to minimize the effect of fluorescence artifacts and to increase the overall robustness of the screen, the compound library members were incubated in separate reactions with rhodamine-labeled probe-protein complexes. Protein and labeled probes were supplied by Dr. Amarnath Natarajan, Department of Pharmacology and Toxicology, University of Texas Medical Branch Galveston, TX.
Assay Buffer: 16mM Na2HPO4, 4 mM NaH2PO4, 150 mM NaCl, 1 mM EDTA, 1 mM DTT, 0.02% NaN3, and 0.01% Tween 20 at pH 7.3.
Assay Controls: 100 nM TAMRA labeled decapeptide dispensed into columns 3 and 4 to generate negative control (full inhibition of
binding, -100 % activity). 100 nM labeled decapeptide/100 nM protein in columns 1, 2, 5 - 48. Titration of unlabeled decapeptide control (from 10 mM, then 1:2 dilution in duplicate) pin-transferred to column 2, rows 1 to 16. Column 1 is neutral.
Three uL of reagents were dispensed to 1536-well Greiner black solid-bottom plates. Compounds and controls (23 nL) were transferred via Kalypsys PinTool. The plates were incubated for 12 min at room temperature, and then read on ViewLux (Perkin-Elmer) High-throughput CCD imager using BODIPY for the rhodamine-labeled decapeptide probe polarization filter sets. During dispense, reagent bottles were kept submerged into 4 deg C water bath and all liquid lines were covered with aluminum foil to minimize probe and protein degradation. All screening operations were performed on a Kalypsys robotic system (Kalypsys, Inc., San Diego, CA) containing one RX-130 and two RX-90 anthropomorphic robotic arms. The timing and order of assay plates passing through the screening system were adjusted such that each compound library plate was assayed against the fluorescein- and rhodamine-labeled assay systems at immediately adjacent time points.
On the % scale 0 is the no-effect control and ±100 the full control effect.

Row | Structure (SMILES) | activity change, negative = inhibition
1 | N#CC1(Nc2ccccc2)CCN(CCc2ccccc2)CC1 | inactive: 1.74%
2 | CCOP(=O)(Cl)Cl | inactive: 0.999%
3 | NC1CCCCC1.NP(=O)(O)N(CCCl)CCCl | inactive: -0.645% [at 15.4 µM]
4 | O=C(OC1CN2CCC1CC2)C1c2ccccc2Oc2ccccc21 (stereo unspecified) | inactive: 2.23%
5 | COc1ccc(NC2CCN(CCc3ccccc3)CC2)c(OC)c1 | inactive: -2.21%
6 | Fc1ccccc1NC1CCN(Cc2ccccc2)CC1 | inactive: 1.39%
7 | CCOc1ncccc1C(=O)NCC1(N2CCOCC2)CCCCC1 | inactive: -0.166%
8 | O=C(O)C1(Nc2ccccc2)CCN(Cc2ccccc2)CC1 | inactive: -0.39% [at 15.4 µM]
9 | CCC(CO)(C(=O)OC1CN2CCC1CC2)c1ccccc1 (stereo unspecified) | inactive: -1.93%
10 | N/C(=N\O)c1c(N)no[n+]1[O-] | inactive: -1.27%
11 | ClCCOP(OCCCl)OCCCl | inactive: 0.277%
